Measured values: ChEMBL document CHEMBL1133958, “Derivatives of (2R,3R,4S)-2-aminomethylpyrrolidine-3,4-diol are selective alpha-mannosidase inhibitors” (Bioorg Med Chem Lett, 2001)

Tests used:
[1] = Percentage inhibition of Beta-galactosidase from Jack bean at 1 mM concentration; conditions: Canavalia ensiformis
[2] = Percentage inhibition of Beta-galactosidase from Jack bean at 1 mM concentration; No inhibition; conditions: Canavalia ensiformis

Row | Compound | inhibition [1] | inhibition [2]
1 | OC1CNC(CNC2CCCC2)C1O (stereo unspecified) | 21% | –
2 | OC1CNC(CNCc2cccs2)C1O (stereo unspecified) | – | inactive
3 | OC1CNC(CNCn2ccnc2)C1O (stereo unspecified) | 36% | –

Further lines, results first:

Row | inhibition [1] | inhibition [2] | Compound
4 | – | inactive | C[C@@H](NCC1NCC(O)C1O)c1ccccc1 (stereo partly specified)
5 | 22% | – | CC(NCC1NCC(O)C1O)C(O)(c1ccccc1)c1ccccc1 (stereo unspecified)
6 | 34% | – | OC1CNC(CNCc2ccco2)C1O (stereo unspecified)

Active and inactive are the calls of the source. No cut-off for these calls is given here.
